The record followed here is PubChem BioAssay AID504490 (NMMLSC, 2011).

The list shows a part of the results, in another mix than the full data. Calls of active or inactive are those of the source.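 How the source made its calls: active means inhibition above a set limit, near 3 SD of compounds lacking own fluorescence (cut at about 54% in these data); inactive means the rest.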

This test concerns beta-arrestin 1 C-terminal peptide binding to AP2 beta2-adaptin appendage (human). Put plainly: blockers of arrestin peptide association with AP2 adaptin – biochemical, GPCR trafficking, flow cytometry, primary screen (AID 504490).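 Further: plate controls were DMSO wells for no effect and 5 µM unlabelled arrestin peptide for full effect.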 The conditions noted are these: FITC-arrestin peptide / GST-AP2 beads, at 10 µM, stronger effect = higher value, AP2 beta2 appendage carries R879A mutation.
`CN1CCCC(OC(=O)C(c2ccccc2)c2ccccc2)C1` (centres undefined): the inhibition was inactive: 7.38%.

Turning to `Clc1ccc(Cl)c(NC2=NCC(CBr)S2)c1` (centres undefined), the inhibition was inactive: 15.1%.

For `NC(=O)c1cc([N+](=O)[O-])cc([N+](=O)[O-])c1N`, the inhibition is inactive: 1.19%.

With `Cc1ccc(N/C(=N/P(=O)(N2CCOCC2)N2CCOCC2)N2CCOCC2)cc1`, the inhibition is inactive: 7.6%.

With `CN(C(=O)Cc1ccc(Cl)c(Cl)c1)[C@H]1CCCC[C@H]1N1CCCC1`, the inhibition was inactive: -0.15%.

Turning to `CCN(N=Nc1nonc1N)c1nonc1N`, the inhibition is inactive: -2.37%.

In the case of `Nc1cccc2ccc([As](=O)(O)O)cc12`, the inhibition is inactive: -4.1%.

Regarding `CN(C(=O)Cc1ccc(Cl)c(Cl)c1)[C@H]1CCCC[C@@H]1N1CCCC1`, the inhibition is inactive: 0.59%.

Consider `Cc1ccc(NP(=O)(Oc2ccccc2F)Oc2ccccc2F)nc1`, for which the inhibition is inactive: 6.78%.

With `Cc1cc(SC(NC(=O)c2ccc(F)cc2)C(Cl)(Cl)Cl)ncn1` (centres undefined), the inhibition is inactive: 12.7%.

`CCOP(=O)(Nc1ccccc1)OCC`: the inhibition was inactive: -0.24%.

On to `CCCC1OP(N)(=O)OCC1CC` (centres undefined), for which the inhibition was inactive: 0.27%.

In the case of `CC(=O)Nc1ccc([As](=O)(O)O)cc1`, the inhibition was inactive: 40.8%.

Turning to `O=C(O)c1ccccc1[As](=O)(O)O`, the inhibition is inactive: 1.42%.

On to `O=P(Nc1nc2ccc(Cl)cc2s1)(c1ccccc1)c1ccccc1`, for which the inhibition was inactive: -6.29%.

Turning to `COC(=O)C1(C)COP(=O)(Nc2ccccc2)OC1` (centres undefined), the inhibition is inactive: -0.62%.

Take `O=[N+]([O-])c1cccc(NC2=NCC(CBr)S2)c1` (centres undefined): the inhibition is inactive: 30.4%.

Consider `O=C(O)CNc1ccc([As](=O)(O)O)cc1`, for which the inhibition is inactive: -15.4%.

Turning to `CC(C)(C)C(=O)NC(Sc1ccncn1)C(Cl)(Cl)Cl` (centres undefined), the inhibition is inactive: 9.44%.

Take `O=[N+]([O-])c1ncn(CCn2ncnc2[N+](=O)[O-])n1`: the inhibition is inactive: 51.7%.

Take `O=C(Nc1cc([As](=O)(O)O)ccc1O)c1ccccc1`: the inhibition was inactive: 8.73%.

As for `O=P1(N(CCCl)CCCl)OCCCS1` (centres undefined), the inhibition is inactive: 1.37%.

Regarding `CN(C)C(=O)OCCc1n(C)cc[n+]1C`, the inhibition was inactive: -1.42%.

Turning to `CC(C)=N/N=C(\N)N[N+](=O)[O-]`, the inhibition is inactive: -2.82%.

Take `CC1CCN(C(=O)Oc2c(Cl)cc(Cl)c3cccnc23)CC1`: the inhibition was inactive: 13%.

As to `C[N+]1=C2C=CC=CC=C2SC12C([N+](=O)[O-])=CC([N+](=O)[O-])=C[C-]2[N+](=O)[O-]` (centres undefined), the inhibition is inactive: -7.98%.

`Nc1ccc([As](=O)(O)c2ccc(N)cc2)cc1`: the inhibition was inactive: 10.3%.

Consider `CCN(/C(=N/P(=O)(N1CCOCC1)N1CCOCC1)N1CCOCC1)c1ccc(OC)cc1`, for which the inhibition is inactive: 4.71%.

Take `CC(=O)N1C2C3N(C(C)=O)C1C1N(C(C)=O)C(C(N1C(C)=O)N3C(C)=O)N2C(C)=O`: the inhibition is inactive: 1.47%.

Turning to `O=[N+]([O-])c1cccc2n[nH]nc12`, the inhibition is inactive: 5.56%.

As to `O=[N+]([O-])c1cc([N+](=O)[O-])c(CCNc2ccccc2)c([N+](=O)[O-])c1`, the inhibition is inactive: 42%.

`CCc1nc2c(n1)c1c(non1O)c1c2no[n+]1[O-]`: the inhibition is inactive: 6.74%.

Consider `Cc1ccc(NP(=O)(Oc2ccccc2)Oc2ccccc2)nc1`, for which the inhibition was inactive: -9.44%.

In the case of `COc1ccc(C2=NCC(CBr)S2)cc1` (centres undefined), the inhibition was inactive: -21.1%.
